# Laboratory results published in patent US8765730B2 (Hoffmann-La Roche Inc, priority 2010, dated 2014).
# Protein sequences, listed by entry. Tags and fused reporters are not part of them.
# UniProt Q8TDU6, whole entry: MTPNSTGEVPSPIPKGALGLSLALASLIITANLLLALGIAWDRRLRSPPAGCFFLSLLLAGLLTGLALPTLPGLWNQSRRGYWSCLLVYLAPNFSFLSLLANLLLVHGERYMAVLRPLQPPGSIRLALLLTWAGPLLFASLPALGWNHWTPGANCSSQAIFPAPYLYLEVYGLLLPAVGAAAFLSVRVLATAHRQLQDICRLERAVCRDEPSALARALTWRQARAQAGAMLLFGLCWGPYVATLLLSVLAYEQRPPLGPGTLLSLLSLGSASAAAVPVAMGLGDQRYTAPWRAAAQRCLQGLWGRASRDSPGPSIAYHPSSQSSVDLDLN
# Molecular target: human GPBAR1 receptor (Homo sapiens, UniProt Q8TDU6)
# Test: functional cAMP assay in CHO-dhfr(minus) cells expressing human GPBAR1 receptors
# Format: cell-based
# Conditions: read-out: human EC50, 30 min at 30° C.
compound,measurement,value
Cc1cc(/C(C[C@H](c2ccc([C@H]3CC[C@H](C(=O)O)CC3)cc2)c2ccccc2C)=N/O)ccn1,pEC50,7.77

# pEC50: −log10 of the molar value.
